Results: patent publication US9631001B2, “Peptide antagonists of the vasopressin-2 receptor” (COMMISSARIAT A L'ENERGIE ATOMIQUE ET AUX ENERGIES …, priority 2012, dated 2017)

The chains behind the UniProt entries cited, without tags or fusion partners. Where a name states a change or a piece, a line headed by the entry shows the natural chain unless it says otherwise.
UniProt P30518, whole entry: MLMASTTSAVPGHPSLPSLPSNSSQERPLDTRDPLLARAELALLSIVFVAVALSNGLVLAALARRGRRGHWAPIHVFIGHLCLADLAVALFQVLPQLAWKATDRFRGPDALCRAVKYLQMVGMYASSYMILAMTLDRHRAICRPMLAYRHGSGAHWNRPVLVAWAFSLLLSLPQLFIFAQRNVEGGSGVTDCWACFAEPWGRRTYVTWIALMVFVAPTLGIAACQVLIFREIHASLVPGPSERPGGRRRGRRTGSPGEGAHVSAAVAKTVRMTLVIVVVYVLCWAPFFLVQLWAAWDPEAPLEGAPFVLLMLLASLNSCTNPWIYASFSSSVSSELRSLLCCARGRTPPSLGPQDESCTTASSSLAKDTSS

Target: vasopressin V2 receptor subtype (V2R) (Homo sapiens, UniProt P30518)
Assay: 3H-AVP competition binding on V2R membranes
Settings: binding inhibition of 3H-AVP on V2R (FIG. 16)

Which Ki does the source give for `CC[C@H](C)[C@@H]1NC(=O)[C@H]([C@@H](C)O)NC(=O)[C@H](CO)NC(=O)[C@H](Cc2ccccc2)NC(=O)[C@H](CCCNC(=N)N)NC(=O)[C@H](CC(N)=O)NC(=O)[C@H](C)NC(=O)[C@H](CC(N)=O)NC(=O)CNC(=O)[C@H](CCCCN)NC(=O)[C@@H]2CSSC[C@@H]3NC(=O)[C@@H]4CCCN4C(=O)CNC(=O)[C@@H]4CCCN4C(=O)[C@H](CCCCN)NC(=O)[C@H](C(C)C)NC(=O)[C@@H]4CCCN4C(=O)[C@H](CC(C)C)NC(=O)[C@H](CC(N)=O)NC(=O)[C@@H](NC(=O)[C@H](Cc4ccccc4)NC(=O)[C@H](CO)NC(=O)[C@@H]4CCCN4C(=O)[C@@H](N)CCCNC(=N)N)CSSC[C@@H](C(=O)N[C@H](C(=O)NCC(=O)O)C(C)C)NC(=O)[C@H]([C@@H](C)O)NC(=O)[C@H](CCCNC(=N)N)NC(=O)[C@H](CCCNC(=N)N)NC(=O)[C@H](CSSC[C@H](NC(=O)[C@H](CCCCN)NC(=O)[C@H](CC(N)=O)NC(=O)[C@H]([C@@H](C)O)NC(=O)[C@H](CCCCN)NC(=O)[C@H](CCC(N)=O)NC(=O)[C@H](CO)NC(=O)[C@H](Cc4ccc(O)cc4)NC(=O)[C@H](Cc4ccc(O)cc4)NC(=O)[C@H](Cc4ccccc4)NC(=O)[C@H](C)NC(=O)[C@H](CO)NC(=O)[C@H](Cc4ccccc4)NC(=O)[C@H](Cc4ccccc4)NC(=O)CNC(=O)[C@H](CC(N)=O)NC3=O)C(=O)N[C@@H](Cc3c[nH]cn3)C(=O)N[C@@H](CO)C(=O)N[C@@H](Cc3ccccc3)C(=O)N[C@@H]([C@@H](C)O)C(=O)N[C@@H](Cc3ccc(O)cc3)C(=O)NCC(=O)NCC(=O)N2)NC(=O)[C@H](CCCCN)NC(=O)[C@H](CCC(=O)O)NC1=O` [U-Da2a] here?
Its Ki is 1.03 nM.
